Test results as given in US20090105116A1.

Legend:
human α-thrombin (human) [1] = target: human α-thrombin (human) (UniProt P00734); test: amidolytic assay of α-thrombin with chromogenic substrate, Lineweaver-Burke, 37° C., 5 mM Ca2+
human α-thrombin (human) [2] = target: human α-thrombin (human) (UniProt P00734); test: amidolytic assay of α-thrombin with chromogenic substrate, Lineweaver-Burke, 37° C., no calcium

- Ki (human α-thrombin (human) [1]): 2200 nM
- Ki (human α-thrombin (human) [2]): 480 nM
Substance: CaM-DTI (designed binder)
